Measurements taken from US7459457B2, “Polycyclic pyridines as potassium ion channel modulators” (Icagen, Inc., priority 2004, dated 2008).

Target: T1, hSK2 (Homo sapiens, UniProt Q9H2S1)
T1 construct: host or cells: cells expressing SK channels
Assay: Assay for compound activity towards hSK channels (86Rb+ efflux)
Type: cell-based
Conditions: 86Rb+ efflux stimulated with calcium ionophore; drug 0.01 to 30 μM in EBSS; read-out: hSK2 Inhibitory Activity
Experimental: 6.1 Assay for Compound Activity Towards hSK Channels Cells expressing small conductance, calcium activated potassium channels, such as SK-like channels were loaded with ^86Rb^+ by culture in media containing ^86RbCl. Following loading, the culture media was removed and the cells were washed in EBSS to remove residual traces of ^86Rb^+. Cells were preincubated with the drug (0.01 to 30 μM in EBSS) and then ^86Rb^+ efflux was stimulated by exposing cells to EBSS solution supplemented with a calcium ionophore, such as ionomycin, in the continued presence of the drug. After a suitable efflux period, the EBSS/ionophore solution was removed from the cells and the ^86Rb^+ content was determined by Cherenkov counting (Wallac Trilux). Cells were then lysed with a SDS solution and the ^86Rb^+ content of the lysate was determined. Percent ^86Rb^+ efflux was calculated according to the following equation: (^86Rb^+ content in EBSS/(^86Rb^+ content in EBSS+^86Rb^+ content of the lysate))×100 6.2 Results Compounds tested in this assay, along with their hSK2 inhibitory activity, are provided in Table 1.

**Q.** How did the pIC50 turn out when “[2,6-Bis(1H-benzimidazol-2-yl) pyridine]2 Fe(II) Complex” was run?
**A.** > 7.00

**Q.** How did the pIC50 turn out when “[2,6-Bis(1H-benzimidazol-2-yl) pyridine]2 Zn(II) Complex” was run?
**A.** > 7.00

pIC50: −log10 of the molar value.
